Tests used:
CK1δ = CK1δ (Homo sapiens, UniProt P48730); conditions: cited from earlier work
CK1ε = CK1ε (Homo sapiens, UniProt P49674); experiment: CK1ε inhibition (IC50); type: biochemical

By UniProt entry, the sequences of proteins in these tests, tags left out. Where a name states a change or a piece, a line headed by the entry shows the natural chain unless it says otherwise.
UniProt P48730: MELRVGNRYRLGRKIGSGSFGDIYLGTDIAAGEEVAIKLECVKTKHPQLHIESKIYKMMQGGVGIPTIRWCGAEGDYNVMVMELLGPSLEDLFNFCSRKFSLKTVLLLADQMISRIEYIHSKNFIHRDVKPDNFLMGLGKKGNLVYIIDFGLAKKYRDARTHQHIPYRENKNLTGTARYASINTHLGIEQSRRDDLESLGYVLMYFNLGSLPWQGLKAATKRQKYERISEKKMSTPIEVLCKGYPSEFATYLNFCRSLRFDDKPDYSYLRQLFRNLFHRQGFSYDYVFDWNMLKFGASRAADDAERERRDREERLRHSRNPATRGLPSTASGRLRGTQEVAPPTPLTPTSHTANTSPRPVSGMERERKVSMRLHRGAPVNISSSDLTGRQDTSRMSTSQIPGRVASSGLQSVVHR
UniProt P49674: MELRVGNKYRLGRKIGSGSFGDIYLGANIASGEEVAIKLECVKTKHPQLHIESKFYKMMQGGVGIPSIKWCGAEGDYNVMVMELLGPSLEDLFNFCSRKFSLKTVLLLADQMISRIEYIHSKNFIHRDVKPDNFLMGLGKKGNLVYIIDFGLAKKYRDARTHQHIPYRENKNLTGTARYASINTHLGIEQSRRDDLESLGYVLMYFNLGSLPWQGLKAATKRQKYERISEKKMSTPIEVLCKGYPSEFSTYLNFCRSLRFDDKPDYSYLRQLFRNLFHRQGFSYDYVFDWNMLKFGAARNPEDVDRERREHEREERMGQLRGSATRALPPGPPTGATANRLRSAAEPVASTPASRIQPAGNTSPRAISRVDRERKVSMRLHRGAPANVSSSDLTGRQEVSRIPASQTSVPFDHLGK

## NC(=O)c1ccc(-c2nc(-c3ccc4c(c3)OCO4)c(-c3ccccn3)[nH]2)cc1 [SB431542]
CK1δ
  IC50: 920 nM
CK1ε
  IC50: 646 nM

— patent US11975005B2, “Treatment of respiratory diseases” (TIANLI BIOTECH PTY LTD, priority 2015, dated 2024)
